Target: Histamine H1 receptor (Cavia porcellus) (UniProt P31389)
Assay: In vitro antagonism of histamine-induced contraction of guinea pig ileum at 1x10E-7M
Format: functional, tissue-based

Chains of the proteins cited; added tags and fusions are not shown.
UniProt P31389, whole entry, looked up: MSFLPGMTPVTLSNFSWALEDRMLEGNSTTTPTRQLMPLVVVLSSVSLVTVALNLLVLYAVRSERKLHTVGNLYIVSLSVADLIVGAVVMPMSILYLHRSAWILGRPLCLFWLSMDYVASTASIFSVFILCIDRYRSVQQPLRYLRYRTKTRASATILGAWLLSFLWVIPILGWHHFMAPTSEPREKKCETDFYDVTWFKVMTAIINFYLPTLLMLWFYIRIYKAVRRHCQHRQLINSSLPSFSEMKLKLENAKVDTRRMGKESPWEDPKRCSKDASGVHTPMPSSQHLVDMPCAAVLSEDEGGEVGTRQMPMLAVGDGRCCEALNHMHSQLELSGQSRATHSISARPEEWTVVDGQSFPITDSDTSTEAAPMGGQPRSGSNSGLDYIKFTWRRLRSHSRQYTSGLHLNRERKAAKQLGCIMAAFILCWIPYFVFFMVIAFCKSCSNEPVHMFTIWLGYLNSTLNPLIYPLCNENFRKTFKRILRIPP

| SMILES | inhibition [%] |
| --- | --- |
| Cn1c(=O)c2c(ncn2CCN2CCC(C(c3ccccc3)c3ccccc3)CC2)n(C)c1=O | 86 |
| Cn1c(=O)c2c(ncn2CCN2CCN(C(c3ccc(F)cc3)c3ccc(F)cc3)CC2)n(C)c1=O | 34 |
